Our source for the inhibition values is PubChem BioAssay AID504414 (Broad Institute, 2011).

Each structure is given as a SMILES string. Only a part is listed here, and it is no random draw. Some results for these compounds are left out of this collection, so the calls shown say nothing about other tests. Active and inactive are the calls of the source.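 The calls were made as follows: active = highest replicate inhibition of at least 40%; inactive = the rest.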

The term inhibition denotes the relative decrease from the control value, in per cent.

This test addresses Golgi-associated PDZ and coiled-coil motif-containing protein (Homo sapiens) (UniProt Q9HD26). In words: CAL PDZ peptide-binding inhibitors, primary screen, biochemical, fluorescence polarization, Cer-tagged CAL PDZ, HTS (AID 504414).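 Also: plate controls were DMSO neutral control wells for no effect and unlabeled competitor peptide control wells for full effect.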 To be noted: purified CAL PDZ, TMR-peptide fluorescence polarization, 1 h; at 20 µM; stronger effect = higher value. (In general: Fluorescence polarisation rises when a labelled molecule tumbles more slowly, as on binding a larger partner.)
Take `O=C(NCC1(N2CCCCC2)CCCCC1)c1cccc(Br)c1`: the inhibition is inactive: -2.32%.

With `Cc1cc(C(=O)NCC2(N3CCCCC3)CCCCC2)ccc1[N+](=O)[O-]`, the inhibition is inactive: -0.885%. The same measure for `CCN1CCCC(OC(=O)C2(O)c3ccccc3C=Cc3ccccc32)C1` (stereo not given): inactive: 0.349%. Then `COc1ccc(C(=O)NCC2(N(C)C)CCCCC2)cc1`, with inactive: 0.867%; and `O=C(NCC1(N2CCCCC2)CCCCC1)c1cc(F)c(F)cc1Cl`, with inactive: -1.56%.

As to `C=CCN1CCN(CCOC(=O)C(O)(c2ccccc2)c2ccccc2)CC1`, the inhibition was inactive: -1.03%. The same measure for `CN(C)C1CCCC1OC(=O)C(O)(c1ccccc1)c1ccccc1` (stereo not given): inactive: -3.09%; for `CN(C)c1ccc(C(=O)NCC2(N(C)C)CCCCC2)cc1`: inactive: -0.472%; for `Cc1ccccc1C(=O)NCC1(N2CCCCC2)CCCCC1`: inactive: -2.66%. The same measure for `Cc1ccc(C(=O)NCC2(N3CCCCC3)CCCCC2)cc1`: inactive: 0.267%; for `CC(C)N1C(=O)CC2(CCN(CCOC(=O)C(O)(c3ccccc3)c3ccccc3)CC2)C1=O`: inactive: -0.0605%.

Consider `COc1cc(SC)ccc1C(=O)NCC1(N(C)C)CCCCC1`, for which the inhibition is inactive: -1.11%. Then `CCN(CC)CC(C)C(C)OC(=O)C(O)(c1ccccc1)c1ccccc1` (stereo not given), with inactive: -1.38%. Then `CN1[C@@H]2CC[C@H]1CC(OC(=O)C(O)(c1ccccc1)c1ccccc1)C2` (stereo not given in full), with inactive: -0.282%; and `O=C(NCC1(N2CCCCC2)CCCCC1)c1cc([N+](=O)[O-])ccc1Cl`, with inactive: -2.32%. As to `CN(C)c1cccc(C(=O)NCC2(N(C)C)CCCCC2)c1`, the inhibition was inactive: 1.26%. Consider `O=C(OCCN1CCCC1)C(O)(c1ccccc1)c1ccccc1`, for which the inhibition is inactive: -0.558%. Then `CC(C)Oc1ccc(C(=O)NCC2(N(C)C)CCCCC2)cc1`, with inactive: -1.04%. The same measure for `COc1ccc(Br)c(C(=O)NCC2(N3CCCCC3)CCCCC2)c1`: inactive: -1.76%. Then `O=C(OC1CN2CCC1CC2)C(CO)(c1ccccc1)c1ccccc1` (stereo not given), with inactive: 0.0245%; and `O=C(NCC1(N2CCCCC2)CCCCC1)c1cccc(Cl)c1`, with inactive: 0.24%; and `COc1ccc(Cl)cc1C(=O)NCC1(N(C)C)CCCCC1`, with inactive: -0.0776%. For the molecule `COc1cccc(C(=O)NCC2(N3CCCCC3)CCCCC2)c1`, the inhibition was inactive: 12.5%. The same measure for `COc1cc(C(=O)NCC2(N(C)C)CCCCC2)c([N+](=O)[O-])cc1OC`: inactive: -1.89%. With `CN(C)C1(CNC(=O)c2ccc(Br)cc2)CCCCC1`, the inhibition was inactive: -1.12%.
